scFv variants of Ab-14 (light chain) against a SARS-CoV-2 spike peptide

The target is the same throughout: PDVDLGDISGINAS, from the HR2 region of SARS-CoV-2 spike.

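Variants in AAYL50 differ from the parent at up to three CDR positions; double and triple changes were sampled at random. In AlphaSeq, yeast of one mating type display the scFv and yeast of the other type display the target. Binding brings cells together so that they mate, and sequencing counts the barcode pairs among the diploids. Scores were corrected for input abundance and mapped to Kd with protein pairs of known affinity run in the same pool. The assay was run in three technical replicates.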

Parent: Ab-14, a human scFv built as VH, a (GGGGS)3 linker, VL. Only the CDRs of the light chain vary.
VH: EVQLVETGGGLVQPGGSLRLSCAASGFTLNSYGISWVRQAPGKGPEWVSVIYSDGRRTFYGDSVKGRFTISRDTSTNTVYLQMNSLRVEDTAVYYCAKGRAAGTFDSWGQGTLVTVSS
VL: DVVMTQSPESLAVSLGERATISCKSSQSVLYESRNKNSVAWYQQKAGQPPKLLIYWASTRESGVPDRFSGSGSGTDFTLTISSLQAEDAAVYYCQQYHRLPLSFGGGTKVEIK

Positions count from residue 1 of the parent VL; R34H puts H in place of R.
All variants listed here change E61 of the VL, counted from its first residue.
The read-out is the apparent dissociation constant on a log10 scale (nM): the lower, the stronger.
A mean of the replicates is given; it leaves out those without a signal.
An entry "no signal" has no value in the source: the pair was not observed among the diploids in any replicate. This suggests poor binding but is not conclusive.
As a blank, each scFv also met three strains without target: over library AAYL50, 18% of these pairings were detected, typically at 4.19 and seldom below 2.99.

- R34H R60P E61K -> no signal (0 of 3 replicates)
- S28I A40E E61N -> no signal (0 of 3 replicates)
- Q27T Y31N E61C -> 1.38 (3 of 3 replicates)
- S25V S58K E61Q -> 3.57 (3 of 3 replicates)
- N37A R60T E61F -> 3.82 (2 of 3 replicates)
- K24V S38P E61L -> 1.28 (3 of 3 replicates)
- V39F E61P P101R -> 4.23 (1 of 3 replicates)
- S26V E61K L100D -> no signal (0 of 3 replicates)
- S26F S38F E61D -> no signal (0 of 3 replicates)
- E61L -> 0.97 (3 of 3 replicates)
- S25V N35F E61S -> 0.32 (3 of 3 replicates)
- S26K K36D E61K -> 3.56 (3 of 3 replicates)
- N35E W56L E61N -> 1.64 (3 of 3 replicates)
- K36E A57V E61P -> 2.28 (3 of 3 replicates)
- V39R A57H E61T -> 4.24 (2 of 3 replicates)
- Y31M E61F -> 1.03 (3 of 3 replicates)
- S25E V29W E61M -> 4.11 (2 of 3 replicates)
- V29Y N37H E61I -> 3.32 (3 of 3 replicates)
- K36M N37P E61W -> 2.97 (3 of 3 replicates)
- Q27L N35C E61M -> 1.30 (3 of 3 replicates)
- S26V W56E E61P -> 1.75 (3 of 3 replicates)
- K36E E61F R99H -> 0.54 (3 of 3 replicates)
- S58Q E61S R99Q -> 2.61 (1 of 3 replicates)
- R34F E61G Y97C -> 0.78 (3 of 3 replicates)
- K24I N35E E61H -> 1.73 (3 of 3 replicates)
- S28L E61N Y97K -> 0.62 (3 of 3 replicates)
- W56C E61L -> 0.90 (3 of 3 replicates)
- S28M E61W -> no signal (0 of 3 replicates)
- E61K Q95M H98T -> no signal (0 of 3 replicates)
- N35P E61P Q96H -> 3.37 (3 of 3 replicates)
- V29T E61L S62N -> 1.03 (3 of 3 replicates)
- K24L E61Q Q96E -> 1.96 (3 of 3 replicates)
- R60N E61K Q95V -> no signal (0 of 3 replicates)
- Q27P V29F E61W -> 1.04 (3 of 3 replicates)
- Q27V E61W Q96C -> 3.28 (3 of 3 replicates)
- W56M E61H L100T -> no signal (0 of 3 replicates)
- S33E E61R -> 2.83 (3 of 3 replicates)
- S33F E61V -> 1.30 (3 of 3 replicates)
- V29T S38T E61I -> no signal (0 of 3 replicates)
- E61T S62A L102F -> 1.31 (3 of 3 replicates)
- K24E K36F E61W -> 2.87 (2 of 3 replicates)
- E61T Q95R -> 4.32 (3 of 3 replicates)
- K24N K36R E61V -> 0.73 (3 of 3 replicates)
- S58C E61A P101R -> 5.71 (2 of 3 replicates)
- A40L W56G E61D -> 2.52 (1 of 3 replicates)

The measurements come from Engelhart et al. 2022 (doi:10.1038/s41597-022-01779-4) through the FLAb antibody collection.